# US8933021B2, “Insulin derivative” (Novo Nordisk A/S, priority 2006, dated 2015)
# Columns and labels:
# [1] = biological target: human serum albumin (Homo sapiens, UniProt P02768); test: Human serum albumin affinity assay (125I-TyrA14-analogue, HSA immobilised on Minileak particles); type: binding
# [2] = Hydrophobicity (hydrophobic index k'rel) relative to human insulin by isocratic RP-HPLC; type: physicochemical
# Method: The elution was monitored by following the UV absorption of the eluate at 214 nm. Void time, t0, was found by injecting 0.1 mM sodium nitrate.
# [3] = Self-association by size exclusion chromatography (SEC), Kav; type: physicochemical
# Method: The ability of the insulin derivatives of the invention to self-associate into large, but soluble complexes is analysed using SEC (size exclusion chromatography):
# The following equation is used to determine the Kav for the derivative: Kav=(t−t0)/(Vt/(f+td−t0)) Where t is the retention time for a given peak, t0 is the retention time for Blue dextran, Vt is the total column volume (here 2.4 ml), f is the flow (here 0.04 ml/min), and td is the retention time for Blue dextran without the column in the system.
substance,measurement,setting,value
N^εB29-ω-carboxy-pentadecanoyl-γ-L-aspartylamide desB30 human insulin [Example 6],Human serum albumin affinity relative to insulin detemir,[1]; class symbol,++ (0.5-2: ++)
same,Human serum albumin affinity relative to insulin detemir,"[1]; relative binding constant, 23° C., detemir=1 in saline buffer",1.36
same,Hydrophobicity relative to human insulin,"[2]; LiChrosorb RP18, 40° C., pH 7.3, HI = 1",1.617
same,Hydrophobicity relative to human insulin,"[2]; class symbol, HI = 1",++ (1-10: ++)
same,Self-association: Kav,"[3]; SEC Superose 6, 37° C., 0.6 mM derivative, 2.1 Zn2+/hexamer, 16 mM phenol, pH 7.8, one value per peak",0.01
same,Self-association: % area of peak,[3]; area of the peak whose Kav is in the cell above,(90%)
same,Self-association: Kav,[3]; class symbol,+++ (Kav < 0.1: +++)
